## scFv variants of Ab-95 (light chain) against a SARS-CoV-2 spike peptide

All variants were tested on one target, the spike HR2 peptide PDVDLGDISGINAS (SARS-CoV-2).

Each scFv is VH, a (GGGGS)3 linker, VL, as in the parent Ab-95, and differs from it in the CDRs of the light chain only.
VH: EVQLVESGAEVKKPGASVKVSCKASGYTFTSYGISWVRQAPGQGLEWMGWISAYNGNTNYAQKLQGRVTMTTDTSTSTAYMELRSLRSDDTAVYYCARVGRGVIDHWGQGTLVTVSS
VL: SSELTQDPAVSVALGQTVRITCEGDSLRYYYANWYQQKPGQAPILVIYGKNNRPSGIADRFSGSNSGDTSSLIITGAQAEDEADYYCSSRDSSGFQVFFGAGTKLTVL

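The parent was found by panning a naive human phage display library on the peptide. In library AAYL52, one, two or three CDR residues were substituted; doubles and triples were drawn at random. In AlphaSeq, yeast of one mating type display the scFv and yeast of the other type display the target. The frequency of each diploid, read from paired DNA barcodes, reflects how well the two displayed proteins bind. The ratio of observed to expected reads was calibrated, replicate by replicate, on BCL2-family standards whose Kd was known from biolayer interferometry. The assay was run in three technical replicates.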

The parent's light chain CDRs are EGDSLRYYYAN, GKNNRPS, SSRDSSGFQVF; each variant's own CDRs replace them letter for letter.
All variants listed here change F98 of the VL, counted from its first residue.
Values are log10 of the apparent Kd in nM; lower means stronger binding.
Averages over replicates are reported, and they cover detected replicates only.
Where no diploid with the target was found in any replicate, the entry reads "nd": below detection, most likely a poor binder, though not proof of it.
Three control strains display no target. For library AAYL52, 28% of the pairings with them gave a signal, with a median of 3.91 and one signal in twenty below 2.90, so weak values seen in few replicates may be background.

The variant EYDSLRYYWAN / GKNNRPS / SSRDSSGFQVQ gave 3.16 (2 of 3 replicates).
The variant EGDSLRYCYAN / GKNNVPS / SSRDSSGFQVA gave 3.67 (3 of 3 replicates).
The variant EGDSLQYYYAN / GKNNRPS / SSRDSSGYQVC gave 5.03 (2 of 3 replicates).
The variant EGDSLQYYYAN / GKNNRPS / SSRDGSGFQVC gave 2.54 (3 of 3 replicates).
The variant EGDSLRYYYAN / GKFNRPS / SSRDSSLFQVK gave 3.70 (1 of 3 replicates).
The variant EGDSLWWYYAN / GKNNRPS / SSRDSSGFQVW gave 4.22 (2 of 3 replicates).
The variant EGQSLRPYYAN / GKNNRPS / SSRDSSGFQVP gave 4.38 (2 of 3 replicates).
The variant EGDSLRYYYYN / GKNNRPS / SSRDSSGFQVN gave 4.39 (2 of 3 replicates).
The variant DSDSLRYYYAN / GKNNRPS / SSRDSSGFQVM gave 4.21 (2 of 3 replicates).
The variant EGDSLRYYYAN / AKNNRPS / SSRMSSGFQVQ gave 4.19 (2 of 3 replicates).
The variant EVDSLRYYYAN / GKNNRPS / SSRDSSGFQVI gave 2.52 (3 of 3 replicates).
The variant EGDSLRYYYAN / GLNNRPS / SSNDSSGFQVY gave 4.14 (1 of 3 replicates).
The variant EGDSLRYYMAN / GKNNRPS / SSIDSSGFQVV gave 2.95 (3 of 3 replicates).
The variant EGEDLRYYYAN / GKNNRPS / SSRDSSGFQVG gave 2.47 (3 of 3 replicates).
The variant EGDSLRYYYNN / GKNNRPS / SSRDSSGFRVM gave 3.24 (3 of 3 replicates).
The variant EGDSLRYYYAN / GKTNRPS / SSSDSSGFQVK gave 3.12 (3 of 3 replicates).
The variant EGDSLRYYYAN / HKNNRPP / SSRDSSGFQVL gave 3.25 (1 of 3 replicates).
The variant EGDSLRYYYAN / GKIHRPS / SSRDSSGFQVH gave 4.10 (2 of 3 replicates).
The variant EGDSLRYYYAN / LKNNRPS / SSRDSVGFQVE gave nd (0 of 3 replicates).
The variant EGDSLRYYMAN / GKNNRPS / ESRDSSGFQVK gave 2.68 (3 of 3 replicates).
The variant EGDSGRYYYAN / CKNNRPS / SSRDSSGFQVN gave nd (0 of 3 replicates).
The variant EGDSLRYYYAN / GKNNPPS / SSRDSSGFQFP gave 5.43 (1 of 3 replicates).
The variant EGDSLRYYYSN / GKNWRPS / SSRDSSGFQVA gave 3.97 (3 of 3 replicates).
The variant EGDSLRYYYAV / GKYNRPS / SSRDSSGFQVI gave nd (0 of 3 replicates).
The variant EGDSLRYYYMN / GKNNRPS / SSRDSSEFQVA gave 3.37 (1 of 3 replicates).
The variant EGDSLRQYYAP / GKNNRPS / SSRDSSGFQVH gave nd (0 of 3 replicates).
The variant EGDSLRYYYAN / GKNNTPS / SFRDSSGFQVK gave 4.29 (3 of 3 replicates).
The variant EGDSLRYYYAN / GKNNRPS / SSYDSSGFQIH gave 2.41 (1 of 3 replicates).
The variant EGTSYRYYYAN / GKNNRPS / SSRDSSGFQVI gave 3.75 (2 of 3 replicates).
The variant EGDSLRYYYAN / GKNNDPS / SSDDSSGFQVT gave nd (0 of 3 replicates).
The variant EGDELRYYYAN / GKGNRPS / SSRDSSGFQVV gave 4.25 (3 of 3 replicates).
The variant EGDSLRYNYAN / GKNNMPS / SSRDSSGFQVI gave 1.31 (3 of 3 replicates).
The variant EGDSLRYSYAN / GKNNRPS / SSRDSSGAQVV gave 1.47 (3 of 3 replicates).
The variant EGCSLRYYYLN / GKNNRPS / SSRDSSGFQVR gave 3.86 (1 of 3 replicates).
The variant EGGSLRYYYAN / GKNNRPS / CSRDSSGFQVW gave 2.54 (3 of 3 replicates).
The variant EGDSLRDYYAN / GKNNRPS / SSIDSSGFQVH gave nd (0 of 3 replicates).
The variant EGDSLRYYQAN / GKNNRPS / SSRSSSGFQVP gave 1.97 (3 of 3 replicates).
The variant EGDSLRYYYAN / GKNNRRS / SSDDSSGFQVC gave 3.12 (3 of 3 replicates).
The variant EGDSLRRYYAN / GKNNRPS / SSRDSSGFQVT gave 1.92 (3 of 3 replicates).
The variant EGDSLRYYYAN / GKNNRPS / SSRFSTGFQVW gave 2.22 (3 of 3 replicates).
The variant EGDSLRYYYPN / GKNNRPS / SSRVSSGFQVA gave 2.65 (3 of 3 replicates).
The variant EGDSLRYYYAN / GKNNRPG / SSRDSSGFQVC gave 4.66 (1 of 3 replicates).
The variant EGDSLRYYYAN / GKNNRPS / SSRDSSGFQEA gave 3.16 (3 of 3 replicates).
The variant EGDSLRYYYAN / GKYNRPA / SSRDSSGFQVV gave 5.88 (1 of 3 replicates).
The variant EGDSLRYYYAN / GKQNRNS / SSRDSSGFQVE gave 3.70 (3 of 3 replicates).
The variant EGDSLRYYYAN / GKNNRLS / SSRDSDGFQVI gave 4.11 (2 of 3 replicates).
The variant EGDSQRYYYAN / GKNNRPS / SSRDSSGFQVW gave 3.93 (3 of 3 replicates).
The variant RGDSLRYYYAN / GKNNRPS / SSRDSSYFQVS gave 3.87 (3 of 3 replicates).
The variant EGDSLRMYYAN / GKNNRPS / SSRDSSGFQVV gave 3.02 (3 of 3 replicates).
The variant EGDSLRYYPAN / CKNNRPS / SSRDSSGFQVT gave 4.01 (1 of 3 replicates).
The variant EGDSLRYYYAN / GKNKRPS / SSRDSSGFQVE gave 3.59 (3 of 3 replicates).

The first 5 variants above that were never detected:

EGDSLRYYYAN / LKNNRPS / SSRDSVGFQVE: nd (0 of 3 replicates).
EGDSGRYYYAN / CKNNRPS / SSRDSSGFQVN: nd (0 of 3 replicates).
EGDSLRYYYAV / GKYNRPS / SSRDSSGFQVI: nd (0 of 3 replicates).
EGDSLRQYYAP / GKNNRPS / SSRDSSGFQVH: nd (0 of 3 replicates).
EGDSLRYYYAN / GKNNDPS / SSDDSSGFQVT: nd (0 of 3 replicates).

Values reported by Engelhart et al. 2022, doi:10.1038/s41597-022-01779-4 (FLAb copy).